Laboratory results taken from US20190388411A1, “NSAID ADMINISTRATION AND RELATED COMPOSITIONS, METHODS AND SYSTEMS” (Alfasigma S.p.A., priority 2013, published 2019).

Assay: Mortality in indomethacin- and diclofenac-induced enteropathy in rats (Example 17)
Settings: 14 days, indomethacin […] BID, diclofenac 4 mg/kg BID, omeprazole 0.7 mg/kg/day, gastroresistant rifaximin 50 mg/kg BID, as named in the label, listed as indomethacin

In the case of `COc1ccc2c(c1)c(CC(=O)O)c(C)n2C(=O)c1ccc(Cl)cc1` [Indomethacin, indomethacin], the “Mortality (%)” value is reported as 13.3%.
